This assay addresses hCB1 receptor (Homo sapiens, UniProt P21554). Briefly: Test IV: CB1 functional assay ([35S]GTPγS binding). Also noted: purchased Receptor Biology Inc RBhCB1 382200; host or cells: HEK293 cells, membrane preparation. Format: biochemical.

The chains behind the UniProt entries cited, without tags or fusion partners.
UniProt P21554, whole entry: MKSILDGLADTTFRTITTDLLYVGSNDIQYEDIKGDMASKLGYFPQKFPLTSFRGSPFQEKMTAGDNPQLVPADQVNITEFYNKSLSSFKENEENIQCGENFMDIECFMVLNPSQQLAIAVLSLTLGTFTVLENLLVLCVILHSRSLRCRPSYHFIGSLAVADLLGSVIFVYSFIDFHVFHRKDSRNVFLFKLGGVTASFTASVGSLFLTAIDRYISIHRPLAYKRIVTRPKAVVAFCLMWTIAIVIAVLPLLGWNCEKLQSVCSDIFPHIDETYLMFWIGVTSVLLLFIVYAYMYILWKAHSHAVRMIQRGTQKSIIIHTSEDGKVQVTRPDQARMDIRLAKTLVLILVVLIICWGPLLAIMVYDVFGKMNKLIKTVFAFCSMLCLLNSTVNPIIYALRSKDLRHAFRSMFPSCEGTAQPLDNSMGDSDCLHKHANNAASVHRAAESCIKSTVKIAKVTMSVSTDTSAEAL

For one compound, Emax results are on record in patent US8552015B2, “Quinazolinone derivatives and their use as CB agonists” (Novartis AG, priority 2002, dated 2013).

On to `CCOC(=O)c1c(C)cc2nc(COC(=O)NCCO)n(-c3ccccc3S(=O)(=O)NC)c(=O)c2c1C` [Example 2, 2-(2-Hydroxy-ethylcarbamoyloxymethyl)-5,7-dimethyl-3-(2-methylsulfamoyl-phenyl)-4-oxo-3,4-dihydro-quinazoline-6-carboxylic acid ethyl ester], for which the maximum response (Emax) is 117 ± 5%.
